Laboratory results: US6399782B1, “Benzimidazole inhibitors of fructose 1,6-bisphosphatase” (Metabasis Therapeutics, Inc., priority 1997, dated 2002)
pIC50: −log10 of the molar value.

Molecular target: T1, mouse liver FBPase (Mus musculus, UniProt Q9QXD6)
T1 construct: This partially purified fraction was used for enzyme assays; from tissue; host or cells: mouse liver, 45-75% ammonium sulfate fraction
T1 sequence (Q9QXD6 2-338 limits assumed): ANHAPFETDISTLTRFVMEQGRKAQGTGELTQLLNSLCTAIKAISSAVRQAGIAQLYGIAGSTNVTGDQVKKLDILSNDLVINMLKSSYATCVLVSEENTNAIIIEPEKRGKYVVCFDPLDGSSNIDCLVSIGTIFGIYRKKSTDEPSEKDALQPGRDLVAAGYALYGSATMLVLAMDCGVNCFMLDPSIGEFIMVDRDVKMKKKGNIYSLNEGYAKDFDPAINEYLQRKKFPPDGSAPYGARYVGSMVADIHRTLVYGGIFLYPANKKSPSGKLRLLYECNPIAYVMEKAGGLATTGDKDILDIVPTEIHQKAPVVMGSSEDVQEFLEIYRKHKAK
Assay: Inhibition of mouse liver FBPase
Type: biochemical
Settings: partially purified mouse liver fraction
Procedure: Enzymatic activity was measured spectrophotometrically in reactions that coupled the formation of product (fructose 6-phosphate) to the reduction of dimethylthiazoldiphenyltetrazolium bromide (MTT) via NADP and phenazine methosulfate (PMS), using phosphoglucose isomerase and glucose 6-phosphate dehydrogenase as the coupling enzymes. Reaction mixtures (200 μl) were made up in 96-well microtitre plates, and consisted of 50 mM Tris-HCl, pH 7.4, 100 mM KCl, 5 mM EGTA, 2 mM MgCl2, 0.2 mM NADP, 1 mg/ml BSA, 1 mM MTT, 0.6 mM PMS, 1 unit/mL phosphoglucose isomerase, 2 units/mL glucose 6-phosphate dehydrogenase, and 0.150 mM substrate (fructose 1,6-bisphosphate). Inhibitor concentrations were varied from 0.01 μM to 10 μM.
Mouse liver FBPase was obtained by homogenizing freshly isolated mouse liver in 100 mM Tris-HCl buffer, pH 7.4, containing 1 mM EGTA, and 10% glycerol. […] This fraction was redissolved in the homogenization buffer and desalted on a PD-10 gel filtration column (Biorad) eluted with same. This partially purified fraction was used for enzyme assays. Both rat liver and mouse liver FBPase were assayed as described for human liver FBPase.

4-Amino-1-[(2-ethyl)pentyl]benzimidazol-2-yl-methylenoxymethyl phosphonic acid [Compound 12.57]
pIC50: < 4.70
